# Membrane permeability of cyclic peptides

PAMPA measures passive passage through an artificial lipid membrane.
Permeability is given as log10 of P in cm/s; higher (less negative) is more permeable.

- CCCC[C@@H]1NC(=O)[C@H](CC(C)C)N(C)C(=O)CN(CC2CCOCC2)C(=O)[C@H](Cc2ccc3ccccc3c2)NC(=O)CN(Cc2ccc3c(c2)OCO3)C(=O)[C@H]2CCCN2C1=O: PAMPA -7.16 (log10 cm/s)
- CCCC[C@@H]1NC(=O)[C@H](CC(C)C)N(C)C(=O)CN(CCOc2ccccc2)C(=O)[C@H](CC(C)C)NC(=O)CN(Cc2ccc(Cl)cc2)C(=O)[C@H]2CCCN2C1=O: PAMPA -7.56 (log10 cm/s)
- CCCC[C@@H]1NC(=O)[C@H](CC(C)C)N(C)C(=O)CN(Cc2ccccc2)C(=O)[C@H](Cc2ccccc2)NC(=O)CN(CCCCc2ccccc2)C(=O)[C@H]2CCCN2C1=O: PAMPA -8.45 (log10 cm/s)
- CCCC[C@@H]1NC(=O)[C@H](CC(C)C)N(C)C(=O)CN(CCc2cccnc2)C(=O)[C@H](C)NC(=O)CN(CCCCc2ccccc2)C(=O)[C@H]2CCCN2C1=O: PAMPA -5.57 (log10 cm/s)
- CCCC[C@@H]1NC(=O)[C@H](CC(C)C)N(C)C(=O)CN(Cc2ccccc2)C(=O)[C@H](CC(C)C)NC(=O)CN(Cc2cc(CC(C)C)on2)C(=O)[C@H]2CCCN2C1=O: PAMPA -6.49 (log10 cm/s)
- CCCC[C@@H]1NC(=O)[C@H](CC(C)C)N(C)C(=O)CN(Cc2ccccc2)C(=O)[C@H](Cc2ccccc2)NC(=O)CN(CCN2CCOCC2)C(=O)[C@H]2CCCN2C1=O: PAMPA -5.42 (log10 cm/s)
- CCCC[C@@H]1NC(=O)[C@H](CC(C)C)N(C)C(=O)CN(CCCc2cnn(C)c2)C(=O)[C@H](Cc2ccccc2)NC(=O)CN(CCCCc2ccccc2)C(=O)[C@H]2CCCN2C1=O: PAMPA -6.32 (log10 cm/s)
- CCCCCN1CC(=O)N(C)[C@@H](CC(C)C)C(=O)N[C@@H](CCCC)C(=O)N2CCC[C@@H]2C(=O)N(Cc2ccccc2Cn2cccn2)CC(=O)N[C@@H](Cc2ccc3ccccc3c2)C1=O: PAMPA -7.80 (log10 cm/s)
- CCCC[C@@H]1NC(=O)[C@H](CC(C)C)N(C)C(=O)CN(CCOC)C(=O)[C@H](C)NC(=O)CN(Cc2ccccc2Cn2cccn2)C(=O)[C@H]2CCCN2C1=O: PAMPA -6.51 (log10 cm/s)
- CCCC[C@@H]1NC(=O)[C@H](CC(C)C)N(C)C(=O)CN(CCc2cccnc2)C(=O)[C@H](Cc2ccc3ccccc3c2)NC(=O)CN(Cc2ccc3c(c2)OCO3)C(=O)[C@H]2CCCN2C1=O: PAMPA -7.42 (log10 cm/s)
- CCCC[C@@H]1NC(=O)[C@H](CC(C)C)N(C)C(=O)CN(CCCc2ccccc2)C(=O)[C@H](Cc2ccc3ccccc3c2)NC(=O)CN(CCCCc2ccccc2)C(=O)[C@H]2CCCN2C1=O: PAMPA -9.27 (log10 cm/s)
- CCCC[C@@H]1NC(=O)[C@H](CC(C)C)N(C)C(=O)CN(CCCc2ccccc2)C(=O)[C@H](C)NC(=O)CN(Cc2cc(CC(C)C)on2)C(=O)[C@H]2CCCN2C1=O: PAMPA -5.32 (log10 cm/s)
- CCCC[C@@H]1NC(=O)[C@H](CC(C)C)N(C)C(=O)CN(CC2CCOCC2)C(=O)[C@H](Cc2ccccc2)NC(=O)CN(Cc2ccccc2Cn2cccn2)C(=O)[C@H]2CCCN2C1=O: PAMPA -5.40 (log10 cm/s)

The first 2 entries again:

{"smiles": "CCCC[C@@H]1NC(=O)[C@H](CC(C)C)N(C)C(=O)CN(CC2CCOCC2)C(=O)[C@H](Cc2ccc3ccccc3c2)NC(=O)CN(Cc2ccc3c(c2)OCO3)C(=O)[C@H]2CCCN2C1=O", "PAMPA (log10 cm/s)": "-7.16"}
{"smiles": "CCCC[C@@H]1NC(=O)[C@H](CC(C)C)N(C)C(=O)CN(CCOc2ccccc2)C(=O)[C@H](CC(C)C)NC(=O)CN(Cc2ccc(Cl)cc2)C(=O)[C@H]2CCCN2C1=O", "PAMPA (log10 cm/s)": "-7.56"}

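Lipid, pH, incubation time, direction and concentration are not recorded in the data file. Other peptides of the study may be missing here. Entries at the database's floor value (log10 P of -10) are not listed.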

Source: CycPeptMPDB (Li et al. 2023), which took these values from Furukawa et al. 2016, doi:10.1021/acs.jmedchem.6b01246.